{"sequences": {"note": "The chains behind the UniProt entries cited, without tags or fusion partners. Where a name states a change or a piece, a line headed by the entry shows the natural chain unless it says otherwise.", "UniProt Q99572": "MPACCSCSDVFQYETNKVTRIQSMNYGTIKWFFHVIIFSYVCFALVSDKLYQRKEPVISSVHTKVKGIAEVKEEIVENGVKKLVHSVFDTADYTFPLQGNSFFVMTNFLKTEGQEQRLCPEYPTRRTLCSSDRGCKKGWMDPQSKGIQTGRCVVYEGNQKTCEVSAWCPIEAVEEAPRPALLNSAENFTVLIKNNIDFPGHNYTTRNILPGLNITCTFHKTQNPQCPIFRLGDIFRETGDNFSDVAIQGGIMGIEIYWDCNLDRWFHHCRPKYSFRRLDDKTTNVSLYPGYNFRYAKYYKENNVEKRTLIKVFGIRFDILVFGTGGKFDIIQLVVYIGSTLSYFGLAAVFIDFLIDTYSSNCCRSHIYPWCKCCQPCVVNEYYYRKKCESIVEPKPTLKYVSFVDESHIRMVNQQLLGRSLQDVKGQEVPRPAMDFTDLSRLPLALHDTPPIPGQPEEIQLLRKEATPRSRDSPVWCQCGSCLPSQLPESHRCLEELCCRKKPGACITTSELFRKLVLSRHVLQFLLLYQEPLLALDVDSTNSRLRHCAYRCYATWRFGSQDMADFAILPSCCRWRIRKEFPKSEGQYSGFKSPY", "UniProt P08684, whole entry": "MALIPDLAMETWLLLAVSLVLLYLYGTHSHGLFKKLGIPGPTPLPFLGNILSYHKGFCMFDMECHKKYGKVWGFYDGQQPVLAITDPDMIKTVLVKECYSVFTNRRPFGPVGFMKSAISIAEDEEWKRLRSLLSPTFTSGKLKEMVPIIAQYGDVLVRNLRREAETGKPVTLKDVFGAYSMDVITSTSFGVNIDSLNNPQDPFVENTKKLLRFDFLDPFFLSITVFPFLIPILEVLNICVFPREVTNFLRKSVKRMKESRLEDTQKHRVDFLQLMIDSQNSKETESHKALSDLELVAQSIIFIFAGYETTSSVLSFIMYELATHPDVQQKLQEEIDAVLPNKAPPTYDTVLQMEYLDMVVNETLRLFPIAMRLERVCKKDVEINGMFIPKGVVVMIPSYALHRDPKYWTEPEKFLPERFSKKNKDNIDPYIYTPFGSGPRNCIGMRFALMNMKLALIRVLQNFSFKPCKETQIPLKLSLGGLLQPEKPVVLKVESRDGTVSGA"}, "source": "ChEMBL document CHEMBL3856233", "about": "“Identification of (R)-(2-Chloro-3-(trifluoromethyl)phenyl)(1-(5-fluoropyridin-2-yl)-4-methyl-6,7-dihydro-1H-imidazo[4,5-c]pyridin-5(4H)-yl)methanone (JNJ 54166060), a Small Molecule Antagonist of the P2X7 receptor” (J Med Chem, 2016)", "key": {"P2X purinoceptor 7 [1]": {"target": "T1, P2X purinoceptor 7 (Rattus norvegicus, UniProt Q64663)", "T1 sequence (Q64663 whole entry)": "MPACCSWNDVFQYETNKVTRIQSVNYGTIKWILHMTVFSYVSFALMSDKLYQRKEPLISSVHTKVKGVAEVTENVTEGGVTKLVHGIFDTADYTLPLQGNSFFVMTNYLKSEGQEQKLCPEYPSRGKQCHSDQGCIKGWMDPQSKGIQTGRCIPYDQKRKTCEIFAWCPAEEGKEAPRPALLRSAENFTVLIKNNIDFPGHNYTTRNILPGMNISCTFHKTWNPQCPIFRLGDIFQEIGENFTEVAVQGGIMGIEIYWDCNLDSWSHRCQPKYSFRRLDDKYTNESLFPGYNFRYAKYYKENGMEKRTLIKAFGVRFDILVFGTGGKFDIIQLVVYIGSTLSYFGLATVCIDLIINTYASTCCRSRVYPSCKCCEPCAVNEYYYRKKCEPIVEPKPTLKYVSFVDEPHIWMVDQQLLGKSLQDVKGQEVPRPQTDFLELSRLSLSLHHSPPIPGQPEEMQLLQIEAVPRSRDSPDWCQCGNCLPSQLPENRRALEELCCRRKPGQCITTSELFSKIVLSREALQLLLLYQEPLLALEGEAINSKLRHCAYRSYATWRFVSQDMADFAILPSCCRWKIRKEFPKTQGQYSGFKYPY", "assay": "biochemical"}, "P2X purinoceptor 7 [2]": {"target": "T2, P2X purinoceptor 7 (Homo sapiens, UniProt Q99572)", "assay": "Displacement of [3H]-(S)-7-(2-chloro-3-(trifluoromethyl)benzyl)-6-methyl-3-(pyrazin-2-yl)-6,7-dihydro-[1,2,4]triazolo[4,3-a]pyrazin-8(5H)-one from recombinant human P2X7 receptor expressed in human 1321N1 cell membranes after 1 hr", "type": "cell-based"}, "Cytochrome P450 3A4 [3]": {"target": "T3, Cytochrome P450 3A4 (Homo sapiens, UniProt P08684)", "assay": "Inhibition of CYP3A4 in human liver microsomes using midazolam as substrate assessed as reduction in 1-OH-midazolam formation by LC/MS/MS analysis", "type": "ADME, tissue-based"}, "Cytochrome P450 3A4 [4]": {"target": "T3, Cytochrome P450 3A4", "assay": "Inhibition of CYP3A4 in human liver microsomes using midazolam as substrate after 15 mins by HPLC analysis", "type": "ADME, tissue-based"}, "P2X purinoceptor 7 [5]": {"target": "T2, P2X purinoceptor 7"}, "P2X purinoceptor 7 [6]": {"target": "T2, P2X purinoceptor 7", "assay": "Antagonist activity at recombinant human P2X7 receptor expressed in human 1321N1 cells assessed as inhibition of Bz-ATP-induced Ca2+ flux preincubated for 30 mins followed by agonist addition measured after 180 sec by calcium-4 dye based FLIPR assay", "type": "cell-based"}, "P2X purinoceptor 7 [7]": {"target": "T1, P2X purinoceptor 7", "assay": "Antagonist activity at recombinant rat P2X7 receptor expressed in human 1321N1 cells assessed as inhibition of Bz-ATP-induced Ca2+ flux preincubated for 30 mins followed by agonist addition measured after 180 sec by calcium-4 dye based FLIPR assay", "type": "cell-based"}}}
{"molecule": "C[C@@H]1c2ncn(-c3ccc(F)cn3)c2CCN1C(=O)c1cccc(C(F)(F)F)c1Cl", "values": [{"measurement": "Ki", "setting": "P2X purinoceptor 7 [1]", "value": "7 to 8", "unit": "nM"}, {"measurement": "Ki", "setting": "P2X purinoceptor 7 [2]", "value": 7, "unit": "nM"}, {"measurement": "IC50", "setting": "Cytochrome P450 3A4 [3]", "value": 2200, "unit": "nM"}, {"measurement": "IC50", "setting": "Cytochrome P450 3A4 [4]", "value": 2000, "unit": "nM"}, {"measurement": "IC50", "setting": "P2X purinoceptor 7 [5]", "value": 92, "unit": "nM"}]}
{"molecule": "CC1c2ncn(-c3ncc(F)cn3)c2CCN1C(=O)c1cccc(C(F)(F)F)c1Cl", "note": "(centres undefined)", "values": [{"measurement": "IC50", "setting": "P2X purinoceptor 7 [6]", "value": 10, "unit": "nM"}]}
{"molecule": "CC1c2ncn(-c3ccc(F)cn3)c2CCN1C(=O)c1cccc(C(F)(F)F)c1Cl", "note": "(centres undefined)", "values": [{"measurement": "IC50", "setting": "P2X purinoceptor 7 [6]", "value": 14, "unit": "nM"}]}
{"molecule": "O=C(c1ccc(Cl)cc1Cl)N1CCc2c(ncn2-c2ccc(F)cn2)C1", "values": [{"measurement": "IC50", "setting": "P2X purinoceptor 7 [7]", "value": "> 10000", "unit": "nM"}]}
{"molecule": "CC1c2ncn(-c3ccccc3)c2CCN1C(=O)c1cccc(C(F)(F)F)c1Cl", "note": "(centres undefined)", "values": [{"measurement": "IC50", "setting": "P2X purinoceptor 7 [6]", "value": 5, "unit": "nM"}]}
